Results on one compound are retold here after patent publication US12281057B2 (VERTEX PHARMACEUTICALS INCORPORATED, priority 2017, dated 2025).

Amino acid sequences for entries named in this document (tags omitted). Residues count along the entry.
UniProt Q9Y5Y9, 126-1722 limits assumed: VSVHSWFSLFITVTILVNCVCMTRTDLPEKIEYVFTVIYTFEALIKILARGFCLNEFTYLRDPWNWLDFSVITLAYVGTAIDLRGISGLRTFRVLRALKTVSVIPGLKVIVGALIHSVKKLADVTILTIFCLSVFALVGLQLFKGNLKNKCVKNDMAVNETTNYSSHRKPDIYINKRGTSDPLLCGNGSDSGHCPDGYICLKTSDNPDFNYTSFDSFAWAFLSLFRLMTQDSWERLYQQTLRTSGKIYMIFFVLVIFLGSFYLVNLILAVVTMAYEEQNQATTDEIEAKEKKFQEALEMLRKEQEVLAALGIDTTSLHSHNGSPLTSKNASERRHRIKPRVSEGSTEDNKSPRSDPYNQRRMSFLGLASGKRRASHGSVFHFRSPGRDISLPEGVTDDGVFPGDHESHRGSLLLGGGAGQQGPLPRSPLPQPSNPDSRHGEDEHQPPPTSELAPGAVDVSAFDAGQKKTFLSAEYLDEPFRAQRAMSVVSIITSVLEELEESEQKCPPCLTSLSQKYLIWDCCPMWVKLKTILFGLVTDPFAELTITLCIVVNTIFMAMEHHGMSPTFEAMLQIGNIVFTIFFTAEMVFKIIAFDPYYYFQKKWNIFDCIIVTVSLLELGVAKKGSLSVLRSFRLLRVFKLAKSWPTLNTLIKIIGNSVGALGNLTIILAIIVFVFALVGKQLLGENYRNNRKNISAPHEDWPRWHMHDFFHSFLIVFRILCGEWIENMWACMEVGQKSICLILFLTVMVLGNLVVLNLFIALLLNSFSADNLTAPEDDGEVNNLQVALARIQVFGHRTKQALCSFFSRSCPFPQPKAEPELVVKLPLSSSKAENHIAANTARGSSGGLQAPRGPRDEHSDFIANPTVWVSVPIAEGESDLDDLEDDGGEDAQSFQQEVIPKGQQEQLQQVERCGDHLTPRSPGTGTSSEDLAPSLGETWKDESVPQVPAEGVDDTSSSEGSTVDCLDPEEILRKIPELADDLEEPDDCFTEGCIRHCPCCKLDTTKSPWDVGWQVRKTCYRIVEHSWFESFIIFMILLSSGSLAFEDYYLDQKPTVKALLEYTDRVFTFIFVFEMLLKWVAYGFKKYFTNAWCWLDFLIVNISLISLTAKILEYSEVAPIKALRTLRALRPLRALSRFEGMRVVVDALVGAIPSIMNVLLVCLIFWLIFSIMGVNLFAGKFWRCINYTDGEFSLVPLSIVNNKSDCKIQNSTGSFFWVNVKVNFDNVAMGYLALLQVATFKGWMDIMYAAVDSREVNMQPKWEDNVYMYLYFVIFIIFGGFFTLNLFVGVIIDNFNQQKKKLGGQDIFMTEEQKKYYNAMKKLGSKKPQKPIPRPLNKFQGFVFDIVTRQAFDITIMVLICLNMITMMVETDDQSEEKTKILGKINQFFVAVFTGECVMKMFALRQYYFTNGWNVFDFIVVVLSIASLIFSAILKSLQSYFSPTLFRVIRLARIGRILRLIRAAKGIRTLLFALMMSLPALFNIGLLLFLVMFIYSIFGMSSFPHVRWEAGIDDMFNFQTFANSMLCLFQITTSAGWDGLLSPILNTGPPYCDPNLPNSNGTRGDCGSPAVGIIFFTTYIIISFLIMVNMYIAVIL

In general, IC50 refers to the concentration that inhibits the measured activity by half.

This assay deals with truncated form of human NaV 1.8 with full channel activity (Homo sapiens, UniProt Q9Y5Y9). Kind of assay: E-VIPR Assay Method A for detecting and measuring Nav inhibition (HEK cells, membrane potential FRET dyes, electrical stimulation). It is filed as cell-based. Particulars: read-out: Nav 1.8 MedChem Optical Assay EVIPR Assay Method A HS IC50, HEK cells expressing human NaV 1.8, HS (human serum) in compound loading buffer, 11 point dose response, top dose 3 μM, Table 20A. The source says: E-VIPR Assay Method A for Detecting and Measuring Nav Inhibition Properties Sodium ion channels are voltage-dependent proteins that can be activated by inducing membrane voltage changes by applying electric fields. The electrical stimulation instrument and methods of use, referred to as E-VIPR, are described in International Publication No. WO 2002/008748 A3 and C.-J. Huang et al. Characterization of voltage-gated sodium channel blockers by electrical stimulation and fluorescence detection of membrane potential, 24 Nature Biotech. 439-46 (2006), both of which are incorporated by reference in their entirety. […] 7) The plate was read on E-VIPR using the current-controlled amplifier to deliver stimulation wave pulses using the following protocol: 1.25 Amps, 2.5 ms pulse width biphasic waveform, 10 Hz for 10 seconds at a scan rate of 200 Hz. […] Data Analysis: Data were analyzed and reported as normalized ratios of emission intensities measured in the 460 nm and 580 nm channels. […] The fluorescence ratio (Rf/Ri) was then calculated and reported as a function of time. […] Responses to the negative (N) and positive (P) controls were calculated as above. […]

Consider `[2H]C([2H])([2H])Oc1c(Oc2ccc(C(F)(F)F)c(OC)c2C(=O)Nc2cc(C(N)=O)ncc2C)ccc(OC(F)(F)F)c1F`, for which the IC50 worked out at 10 nM.
